The values below come from US10674724B2, “Method of activating immune response in plants” (priority 2012, dated 2020).

This data set is described as follows: solubility in water. It counts as physicochemical.

Take `O=C(O)c1cc(Cl)ccc1O` [5-chloro SA]: the solubility in water entry is reported as “low solubility in water”.
